These are literature values, as cited in patent publication US9044388B2, “Dry eye treatment” (Ocular Research of Boston, Inc., priority 2005, dated 2015).

The conditions of the data set: result in words; cited from earlier work.

Regarding sorbitan monolaurate [Span 20], the solubility result is given as “water insoluble”.
Take polyoxyethylene (40) stearate [Myrj-52]: the solubility result was “water-soluble”.
